{
  "sequences": {"note": "Protein sequences, listed by entry. Tags and fused reporters are not part of them.", "UniProt O35433, whole entry Y511A": "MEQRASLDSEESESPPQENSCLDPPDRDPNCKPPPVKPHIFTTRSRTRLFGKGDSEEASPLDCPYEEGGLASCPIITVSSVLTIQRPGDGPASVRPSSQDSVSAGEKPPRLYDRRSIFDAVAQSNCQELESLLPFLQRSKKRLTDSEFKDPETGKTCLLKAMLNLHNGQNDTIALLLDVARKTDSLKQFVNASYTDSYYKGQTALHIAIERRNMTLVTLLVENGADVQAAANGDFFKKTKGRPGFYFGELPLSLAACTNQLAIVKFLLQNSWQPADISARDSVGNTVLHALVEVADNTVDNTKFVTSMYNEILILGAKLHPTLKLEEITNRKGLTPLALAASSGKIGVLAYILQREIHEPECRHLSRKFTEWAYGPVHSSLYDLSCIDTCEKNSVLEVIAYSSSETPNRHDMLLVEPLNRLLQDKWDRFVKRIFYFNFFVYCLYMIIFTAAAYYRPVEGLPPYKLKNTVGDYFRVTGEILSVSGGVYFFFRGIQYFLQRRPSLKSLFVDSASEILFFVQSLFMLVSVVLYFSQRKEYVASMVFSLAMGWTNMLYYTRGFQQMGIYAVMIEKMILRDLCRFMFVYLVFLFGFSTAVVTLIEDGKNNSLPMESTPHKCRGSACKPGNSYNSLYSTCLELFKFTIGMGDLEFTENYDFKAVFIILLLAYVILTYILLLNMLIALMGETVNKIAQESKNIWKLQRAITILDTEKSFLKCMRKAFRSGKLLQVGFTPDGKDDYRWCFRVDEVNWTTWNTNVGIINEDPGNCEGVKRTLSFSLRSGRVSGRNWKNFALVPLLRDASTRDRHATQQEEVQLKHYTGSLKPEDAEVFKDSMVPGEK"},
  "source": "patent US20130102680A1",
  "about": "“METHODS FOR SELECTIVE SILENCING OF SENSORY NEURONS” (CORNELL UNIVERSITY, priority 2011, published 2013)",
  "biological_target": "T1, rTRPV1 Y511A (Rattus norvegicus, UniProt O35433, Y511A)",
  "T1 construct": "expressed in transfected cells; host or cells: HEK cells",
  "assay": "YO-PRO-1 entry in HEK cells expressing rTRPV1 Y511A",
  "type": "cell-based",
  "data": [
    {"substance": "2-aminoethoxydiphenyl borate [2-APB]", "values": [
      {"measurement": "YO-PRO-1 transport via rTRPV1 Y511A mutant", "result": "can facilitate YO-PRO-1 entry"}
    ]}
  ]
}
